The source of these data is US5824692A (priority 1995, dated 1998).

SMILES strings stand for the structures.

In the experiment the target is high affinity CNS nicotinic receptors. The experiment is classed as binding, rat (Sprague-Dawley).

With `CNCC/C=C/c1ccc(C)nc1` [Sample No. 6, (E)-N-methyl-4-[3-(6-methylpyrindin)yl]-3-butene-1-amine], the Ki (commonly the equilibrium dissociation constant of an inhibitor or competing ligand from its target) is 176 nM. The compound `COc1cncc(/C=C/CCN)c1` [Sample No. 3, (E)-4-[3-(5-methoxypyridin)yl]-3-butene-1-amine monofumarate] had a Ki of 22 nM.
